Biological target: T1, Acetylcholinesterase (Rattus norvegicus) (UniProt P37136)
T1 sequence (whole entry): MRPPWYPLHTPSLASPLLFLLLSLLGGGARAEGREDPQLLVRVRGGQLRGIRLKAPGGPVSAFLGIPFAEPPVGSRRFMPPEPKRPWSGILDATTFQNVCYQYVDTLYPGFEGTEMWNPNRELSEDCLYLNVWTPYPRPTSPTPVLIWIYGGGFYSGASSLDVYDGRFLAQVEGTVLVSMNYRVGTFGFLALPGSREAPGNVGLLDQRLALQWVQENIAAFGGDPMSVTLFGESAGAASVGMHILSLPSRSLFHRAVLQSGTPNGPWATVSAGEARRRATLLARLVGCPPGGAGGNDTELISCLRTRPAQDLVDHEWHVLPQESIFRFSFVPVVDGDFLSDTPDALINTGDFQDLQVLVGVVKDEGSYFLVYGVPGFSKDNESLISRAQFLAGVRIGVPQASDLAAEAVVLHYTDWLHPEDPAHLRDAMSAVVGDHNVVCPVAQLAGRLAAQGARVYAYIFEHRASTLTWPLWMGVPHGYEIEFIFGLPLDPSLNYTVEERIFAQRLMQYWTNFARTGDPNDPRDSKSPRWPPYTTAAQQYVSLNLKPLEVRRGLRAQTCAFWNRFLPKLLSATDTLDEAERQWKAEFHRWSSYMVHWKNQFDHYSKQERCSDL
Experiment: Reactivation of tabun inhibited AChE from rat brain at 1 mM
Set-up: scale not given: the % may be the effect or the level left

Compound	Activity [%]
N#Cc1cc[n+](CCC[n+]2cccc(/C=N\O)c2)cc1	0
NC(=O)c1cc[n+](COC[n+]2ccccc2/C=N/O)cc1	2
N#Cc1cc[n+](CCC[n+]2ccccc2/C=N/O)cc1	0
N#Cc1cc[n+](CCC[n+]2ccc(/C=N\O)cc2)cc1	0

Biological target: T1, Acetylcholinesterase (Rattus norvegicus)
Experiment: Reactivation of tabun inhibited AChE from rat brain at 0.1 uM
Set-up: scale not given: the % may be the effect or the level left

Compound	Activity [%]
N#Cc1cc[n+](CCC[n+]2cccc(/C=N\O)c2)cc1	0
NC(=O)c1cc[n+](COC[n+]2ccccc2/C=N/O)cc1	4
N#Cc1cc[n+](CCC[n+]2ccccc2/C=N/O)cc1	0
N#Cc1cc[n+](CCC[n+]2ccc(/C=N\O)cc2)cc1	0

Biological target: T1, Acetylcholinesterase (Rattus norvegicus)
Experiment: Reactivation of paraoxon inhibited AChE from rat brain at 1 mM
Set-up: scale not given: the % may be the effect or the level left

Compound	Activity [%]
N#Cc1cc[n+](CCC[n+]2cccc(/C=N\O)c2)cc1	4
NC(=O)c1cc[n+](COC[n+]2ccccc2/C=N/O)cc1	35
N#Cc1cc[n+](CCC[n+]2ccccc2/C=N/O)cc1	0
N#Cc1cc[n+](CCC[n+]2ccc(/C=N\O)cc2)cc1	32

Biological target: T1, Acetylcholinesterase (Rattus norvegicus)
Experiment: Reactivation of paraoxon inhibited AChE from rat brain at 0.1 uM
Set-up: scale not given: the % may be the effect or the level left

Compound	Activity [%]
N#Cc1cc[n+](CCC[n+]2cccc(/C=N\O)c2)cc1	0
NC(=O)c1cc[n+](COC[n+]2ccccc2/C=N/O)cc1	0
N#Cc1cc[n+](CCC[n+]2ccccc2/C=N/O)cc1	3
N#Cc1cc[n+](CCC[n+]2ccc(/C=N\O)cc2)cc1	25

From ChEMBL document CHEMBL1139696, “Synthesis of asymmetrical bispyridinium compounds bearing cyano-moiety and evaluation of their reactivation activity against tabun and paraoxon-inhibited acetylcholinesterase” (2006)
